Results from ChEMBL document CHEMBL3352423, “'Carba'-carfentanil (trans isomer): a μ opioid receptor (MOR) partial agonist with a distinct binding mode” (2014).

Sequences of proteins named here, by UniProt entry; tags and fusion partners are left off.
UniProt P97266, whole entry: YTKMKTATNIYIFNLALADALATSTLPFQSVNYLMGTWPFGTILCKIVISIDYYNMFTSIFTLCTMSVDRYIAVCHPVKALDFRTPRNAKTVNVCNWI

Assays:
[1] = Selectivity ratio of Ki for kappa opioid receptor in guinea pig brain membranes to Ki for mu opioid receptor in rat brain membranes
[2] = target: Mu-type opioid receptor (Cavia porcellus) (UniProt P97266); test: Agonist activity at mu opioid receptor in guinea pig ileum assessed as inhibition of electrically-stimulated muscle contraction

O=CN1CC[C@]23c4c5ccc(O)c4O[C@H]2[C@@H](O)C=C[C@H]3[C@H]1C5
Ratio Ki [1]: 1 | Ke [2]: 1240 nM
